Experimental findings from patent US9120761B2, “Selective FAK inhibitors” (priority 2011, dated 2015) are described below.

The chains behind the UniProt entries cited, without tags or fusion partners. Residues count along the entry.
UniProt Q05397, 411-686: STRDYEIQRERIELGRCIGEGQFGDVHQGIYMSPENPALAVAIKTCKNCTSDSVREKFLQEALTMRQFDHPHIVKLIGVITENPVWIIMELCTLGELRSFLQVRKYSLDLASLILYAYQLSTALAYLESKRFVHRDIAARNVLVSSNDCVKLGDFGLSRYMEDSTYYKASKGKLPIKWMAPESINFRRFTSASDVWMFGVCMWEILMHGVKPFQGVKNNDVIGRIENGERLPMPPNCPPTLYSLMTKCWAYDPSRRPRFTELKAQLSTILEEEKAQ
UniProt Q05397, whole entry: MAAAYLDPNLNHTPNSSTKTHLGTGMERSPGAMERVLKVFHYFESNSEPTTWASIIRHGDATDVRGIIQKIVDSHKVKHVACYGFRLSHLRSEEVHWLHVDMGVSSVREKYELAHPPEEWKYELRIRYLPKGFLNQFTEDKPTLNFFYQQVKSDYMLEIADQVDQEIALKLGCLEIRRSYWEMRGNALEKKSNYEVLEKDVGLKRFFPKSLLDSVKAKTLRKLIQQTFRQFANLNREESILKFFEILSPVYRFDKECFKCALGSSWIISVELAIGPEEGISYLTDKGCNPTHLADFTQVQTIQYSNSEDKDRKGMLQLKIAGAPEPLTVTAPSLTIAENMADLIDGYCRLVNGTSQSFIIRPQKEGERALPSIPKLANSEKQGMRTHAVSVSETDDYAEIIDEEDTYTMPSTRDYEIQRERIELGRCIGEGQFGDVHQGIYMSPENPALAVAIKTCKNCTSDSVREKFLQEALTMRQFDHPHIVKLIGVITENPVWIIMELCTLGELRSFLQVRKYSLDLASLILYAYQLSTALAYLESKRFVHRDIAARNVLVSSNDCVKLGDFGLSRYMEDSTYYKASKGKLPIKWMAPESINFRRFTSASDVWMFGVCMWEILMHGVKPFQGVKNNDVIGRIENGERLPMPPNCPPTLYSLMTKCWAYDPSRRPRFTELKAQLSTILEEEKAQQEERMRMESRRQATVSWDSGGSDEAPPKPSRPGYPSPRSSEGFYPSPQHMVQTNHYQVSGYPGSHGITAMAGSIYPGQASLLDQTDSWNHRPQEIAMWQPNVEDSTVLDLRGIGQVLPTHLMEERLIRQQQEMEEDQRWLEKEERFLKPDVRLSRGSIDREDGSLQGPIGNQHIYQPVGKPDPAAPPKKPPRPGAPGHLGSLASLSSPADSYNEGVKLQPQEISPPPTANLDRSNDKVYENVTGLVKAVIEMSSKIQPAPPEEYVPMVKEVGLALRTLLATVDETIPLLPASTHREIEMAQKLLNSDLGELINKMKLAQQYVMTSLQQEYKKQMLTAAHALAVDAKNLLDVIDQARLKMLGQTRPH
UniProt P35916, 25-1363 limits assumed: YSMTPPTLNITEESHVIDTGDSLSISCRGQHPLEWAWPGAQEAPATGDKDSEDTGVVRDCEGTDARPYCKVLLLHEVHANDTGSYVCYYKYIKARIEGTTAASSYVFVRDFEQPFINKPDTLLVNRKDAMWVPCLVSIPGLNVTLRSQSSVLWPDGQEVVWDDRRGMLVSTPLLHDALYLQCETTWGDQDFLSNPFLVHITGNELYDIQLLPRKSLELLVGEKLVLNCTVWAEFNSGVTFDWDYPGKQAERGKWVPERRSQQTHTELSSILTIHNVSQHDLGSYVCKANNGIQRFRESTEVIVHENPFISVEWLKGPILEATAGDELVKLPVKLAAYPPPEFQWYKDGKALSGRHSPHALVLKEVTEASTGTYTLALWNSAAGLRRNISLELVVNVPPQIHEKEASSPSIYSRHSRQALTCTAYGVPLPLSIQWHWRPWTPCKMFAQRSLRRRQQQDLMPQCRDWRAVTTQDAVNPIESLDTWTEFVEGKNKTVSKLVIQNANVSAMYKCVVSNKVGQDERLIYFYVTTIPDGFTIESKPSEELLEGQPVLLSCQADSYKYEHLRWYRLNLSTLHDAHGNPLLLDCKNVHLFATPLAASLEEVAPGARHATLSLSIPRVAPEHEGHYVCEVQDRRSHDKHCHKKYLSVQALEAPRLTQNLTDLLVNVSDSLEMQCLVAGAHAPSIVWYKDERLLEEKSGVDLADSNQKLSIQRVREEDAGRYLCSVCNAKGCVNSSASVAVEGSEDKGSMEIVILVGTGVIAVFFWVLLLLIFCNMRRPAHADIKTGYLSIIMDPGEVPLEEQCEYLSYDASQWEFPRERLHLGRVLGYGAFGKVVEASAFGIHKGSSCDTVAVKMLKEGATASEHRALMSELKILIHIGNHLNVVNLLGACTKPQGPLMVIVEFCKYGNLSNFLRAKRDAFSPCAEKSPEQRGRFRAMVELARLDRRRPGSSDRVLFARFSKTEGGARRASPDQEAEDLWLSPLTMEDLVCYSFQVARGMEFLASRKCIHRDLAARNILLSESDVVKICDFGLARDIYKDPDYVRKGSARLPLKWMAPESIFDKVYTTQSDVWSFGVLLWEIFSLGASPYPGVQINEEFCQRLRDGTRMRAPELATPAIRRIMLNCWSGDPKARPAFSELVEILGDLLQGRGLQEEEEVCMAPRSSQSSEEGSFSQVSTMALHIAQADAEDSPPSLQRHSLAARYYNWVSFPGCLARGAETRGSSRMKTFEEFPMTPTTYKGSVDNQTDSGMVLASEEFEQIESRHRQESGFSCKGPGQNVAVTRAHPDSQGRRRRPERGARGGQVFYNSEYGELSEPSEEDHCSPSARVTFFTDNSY

Molecules are shown by their SMILES.

For experiment [1], the target named is FAK enzyme (catalytic domain, amino acids 411-686) (Homo sapiens (Human), UniProt Q05397). Briefly: FAK biochemical Alpha Screen assay. The note with it: 80 μM ATP.
Experiment [2] deals with N-terminally GST-fused purified FAK enzyme (Homo sapiens (Human), UniProt Q05397). As to the kind of experiment: FAK Biacore SPR assay. The format is binding. The note with it: Biacore S51, 25° C.
Experiment [3] concerns the target VEGFR3 cytoplasmic domain (Homo sapiens, UniProt P35916). As to the kind of experiment: VEGFR3 biochemical assay (Alpha Screen). The following applies: N-terminal GST-fusion protein (amino acids 798-1298), 500 μM ATP.

For the compound `CCc1cc(C2CCN(C)CC2)ccc1Nc1ncc(C(F)(F)F)c(CCc2ccccc2CC(N)=O)n1` [Compound 9, 2-(2-(2-(2-((2-Ethyl-4-(1-methylpiperidin-4-yl)phenyl)amino)-5-(trifluoromethyl)pyrimidin-4-yl)ethyl)phenyl)acetamide], the figures for the IC50 in experiment [1] and in experiment [3] were 3.6 nM and 1010 nM, respectively. This compound returned an equilibrium dissociation constant (Kd) in experiment [2] of 1.5 nM.
